Paper PMC3760508 (Journal of medicinal chemistry, 2009)

Assay: particle
Type: physicochemical
Settings: flow cytometry, in some cases confirmed by DLS

## Nc1ccccc1-c1nnc(C(=O)NCCN2CCOCC2)o1 [Compound 17]
  particles? lowest evaluated concentration at which particle formation was observed: >200 µM
